According to patent US20240335539A1, “MODULATION OF BCL-2 TO ENHANCE CHIMERIC ANTIGEN RECEPTOR CANCER IMMUNOTHERAPY EFFICACY” (The Trustees of the University of Pennsylvania, priority 2021, published 2024):

Test system: CART19-BCL2(WT)-tEGFR
Assay: Depletion of tEGFR-expressing CART cells by anti-EGFR antibody, 24h
Format: cell-based, human
Details: vs isotype control
Excerpt: FIGS. 26A-26H illustrate the finding that increased BCL-2 expression in T cells from CART apheretic products is associated with positive clinical outcomes in lymphoma patients at long term. FIG. 26A is a schematic description of the approach taken to investigate the relationship between the level of BCL-2 and CART's clinical response. RNA was extracted from T cells from apheretic products of 38 lymphoma patients who received CART19 immunotherapy (CTL019, i.e., tisagenleucleucel) in the clinical trial (NCT02030834). Next, BCL-2 mRNA expression was quantified via the nCounter analysis system (NanoString Technologies, Inc, Seattle, WA). FIG. 26B is a volcano plot showing differential gene expression in T cells based on best overall response (CR or NR). […] EGFR: Epidermal growth factor receptor.
Nevertheless, to further investigate the safety profile of this approach, whether CART19-BCL-2(WT) cells are still sensitive to conventional cytotoxic drugs such as chemotherapy (e.g., doxorubicin) was assessed. […] Furthermore, to enhance the safety profile of CART19-BCL-2(WT) cells, a CART suicide system (Paszkiewicz, et al., The Journal of clinical investigation 2016; 126(11):4262-72) was employed by expressing truncated EGFR into CART19-BCL-2(WT). Whether anti-EGFR antibodies can mediate antibody-dependent cellular cytotoxicity, thereby eradicating CART19-BCL-2(WT), was tested.

## anti-EGFR antibodies: anti-EGFR antibody (Cetuximab) used to deplete tEGFR-expressing CART cells
  Elimination of BCL-2-expressing CART cells via truncated EGFR: successfully eliminated
